Laboratory results taken from EP0498222A1, “Novel peptides” (SUMITOMO CHEMICAL COMPANY LIMITED, priority 1991, dated 1992).

What was measured:
[1] = tested on: last instar larvae of Pseudaletia separata; assay: Insecticidal activity by injection; settings: injected on day 0 of last instar; table prints 7 pmol, text 4 picomoles
[2] = tested on: last instar larvae of Spodoptera litura; assay: Paralyzing activity by injection; settings: 36 pmol injected on day 0 of last instar

CSCC[C@@H]1NC(=O)[C@H](Cc2ccc(O)cc2)NC(=O)CNC(=O)[C@H](C)NC(=O)[C@H](C(C)C)NC(=O)[C@@H](NC(=O)CNC(=O)CNC(=O)[C@H](CO)NC(=O)[C@H](Cc2ccccc2)NC(=O)[C@H](CC(N)=O)NC(=O)[C@@H](N)CCC(=O)O)CSSC[C@@H](C(=O)N[C@@H](CCCCN)C(=O)N2CCC[C@H]2C(=O)N[C@H](C(=O)N[C@@H](Cc2ccccc2)C(=O)N[C@@H](Cc2ccc(O)cc2)C(=O)N[C@@H](CCC(N)=O)C(=O)O)[C@@H](C)O)NC(=O)[C@H](CCCNC(=N)N)NC(=O)CNC(=O)[C@H](CC(=O)O)NC(=O)[C@@H]2CCCN2C(=O)[C@H]([C@@H](C)O)NC(=O)[C@H](CCCNC(=N)N)NC1=O
Mortality (%) after 48 hours [1]: 100%
paralysis (%) after 10 min [2]: 75.0%
